Laboratory results published in US8795659B2 (priority 2004, dated 2014).

Tests used:
[1] = Sub-acute IV (3-day) dosing of IPM in dogs; assay type: in vivo; conditions: iv daily × 3 days
[2] = test system: Lewis Lung Carcinoma; assay: Response of s.c. Lewis lung carcinoma in mice (Table 3); conditions: for Highest non-toxic dosage: IP

Row | Structure (SMILES) | Safety LD50 (mg/kg): dose with 100% survival [1] [mg/kg/day] | % ILS (excluding survivors) ([2]; 30 mg kg^-1/dose IP, Day 2 Q5 min × 7) [%] | % ILS (excluding survivors) ([2]; 200 mg kg^-1/dose IP, Day 2 Single dose) [%] | Highest non-toxic dosage ([2]; Day 2 Q5 min × 7) [mg kg^-1/dose] | Highest non-toxic dosage ([2]; Day 2 Single dose) [mg kg^-1/dose]
1 | O=P(O)(NCCCl)NCCCl | 1 to 5 | – | – | – | –
2 | NP(=O)(O)N(CCCl)CCCl | – | 17 | 15 | 30 | 200
